AF4-AF9 inh – MLL-AF4/AF9 protein interaction inhibition | AlphaScreen, biotin-AF4 peptide binding to FLAG-AF9 | AID 651704 | 0.47% of 350,000 active | P42568 | inhibition, % at 10 µM;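 active = every replicate reaching a set inhibition limit, whatever the replicate mean, cut at about 25% in these data; inconclusive = mean inhibition reaches that limit but some replicates miss it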
RAD54 inh – blocks human RAD54 Holliday junction branch migration; inhibition, % at 10.4 µM; Q92698; 0.14% of 360,000 active; FAM/BHQ fluorescence;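 active = mean normalized replicate activity at least 40 and at least half of replicates scoring 40 or more; inconclusive = only one of the two criteria met; inactive = mean below 40 and under half of replicates reaching 40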;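 note: inhibitors cause a drop in the FAM fluorescence signal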
E-sel inducer – induces E-selectin expression in human endothelial cells | activation, % at 7.58 µM | 0.37% of 260,000 active | HUVEC E-selectin immunofluorescence imaging; normalized: neutral wells 0, TNF-alpha wells 100 | AID 686992;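 active = mean E-selectin-positive cell signal at least 10% of the positive control, reached in at least 60% of replicates, without over 20% cell loss; inconclusive = no rule given, readout overlaps actives, possibly toxicity-flagged; inactive = the rest, including those meeting only one limit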
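Test system – human umbilical vein endothelial cells (HUVEC), E-selectin induction · Input – 3,000 HUVEC seeded per well · Buffer or medium – EGM-2, gelatin · Compound dosing – single-point compound dose · Detection – immunofluorescence imaging · Measure – percent E-selectin-positive cells · Controls – TNF-alpha high, DMSO low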
SIRT5 block – sirtuin-5 (human) deacylase inhibition | Q9NXA8 | Purified SirT5, succinyl-peptide AMC, trypsin-coupled fluorescence | inhibition, % at 15 µM | 1.1% of 330,000 active | AID 652115; in the data active = inhibition above about 15%; inconclusive = no clear call, values can overlap the other calls
Yeast UUG start – modulators of yeast start codon fidelity, primary screen, whole organism, S. cerevisiae, single point, plate reader | AID 602363, 2012 | S. cerevisiae UUG-firefly luciferase reporter, luminescence/redox ratio | activity score, % at 18.7 µM | hit rate 0.13% among 350,000;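 active = replicate mean at a twofold rise or more, about +100% in these data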;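 also: firefly luciferase made from a UUG start codon reports start codon fidelity; reporter light over untreated wells divided by growth signal over untreated wells; some hits fall short of that in this replicate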
RAD52 inh – blocks human RAD52 DNA annealing | P43351 | recombinant RAD52 DNA annealing, FRET fluorescence | inhibition, % at 18.7 µM | 0.46% of 360,000 active | AID 651710;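 active = every replicate showing at least 50% inhibition; inconclusive = mean inhibition at least 50% but not in every replicate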
AlphaScreen intf – AlphaScreen signal interference counter-screen hit. shares compounds with AF4-AF9 inh. signal luminescence. AC50, µM (titrated, usually from 12 µM). 45% of 530 active. AID 720494; cut-off not given, nearly all actives have AC50 up to about 14 µM
DNA binder FP – DNA binding artifact in RAD52 counter-screen; shares compounds with RAD52 inh; Salmon sperm DNA/acridine orange FP displacement; AC50, µM; 8% of 1,000 active; AID 652128;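 active = fitted half-maximal concentration for signal loss at or below twice the highest dose tested, in every separate run, actives reach about 64 µM in these data; inconclusive = runs disagree, or flat partial signal loss, or poor fit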
Of the large screens only hits and unclear results are named; the others gave an inactive call (follow-up assays come after a bar, where they were run). Sampled rows, rich in hits. Any-hit rate of the full collection: about 1.8%.

C/C=C/c1ccc([C@H]2[C@@H](CO)N(C(=O)CC)[C@H]2CNC(=O)c2ccncc2)cc1	none (no result: AF4-AF9 inh, SIRT5 block, RAD52 inh)
CCCNC(=O)N1[C@H](CO)[C@H]2c3ccccc3N(C(=O)Nc3cccc(F)c3)C[C@H]21	none
COCCN=c1scc(-c2ccco2)n1/N=C/c1ccc(O)c(O)c1O	AF4-AF9 inh 33 | AlphaScreen intf inactive
Oc1c(CN2CCOCC2)cc(CN2CCOCC2)cc1CN1CCOCC1	none
Cc1cc(N=Nc2ccc(Cl)cc2)cc(CN2CCOCC2)c1O	AF4-AF9 inh 30 (no result: E-sel inducer) | AlphaScreen intf inactive
O=C(O)CCCNc1cc(N2CCN(C(=O)c3ccco3)CC2)c2noc3c2c1C(=O)c1ccccc1-3	AF4-AF9 inh 37 | AlphaScreen intf inactive
COCC(=O)Nc1ccc2c(c1)OC[C@@H](C)N(C(=O)c1ccccn1)C[C@H](C)[C@@H](OC)CN(C)C2=O	none (no result: AF4-AF9 inh, SIRT5 block, Yeast UUG start, RAD52 inh)
CS(=O)(=O)N1CCCCN2[C@H](C1)[C@H](c1ccc(C#Cc3ccccn3)cc1)[C@@H]2CO	AF4-AF9 inh 32 | AlphaScreen intf inactive
Nc1ccccc1NC1CCCCC1	AF4-AF9 inh 33 (no result: RAD54 inh, E-sel inducer, Yeast UUG start) | AlphaScreen intf 10µM
O=C(Nc1ccccc1NC(=O)NC1CCCCC1)NC1CCCCC1	none (no result: AF4-AF9 inh, E-sel inducer, SIRT5 block, RAD52 inh)
O=C(Nc1ccc(Cl)c(Cl)c1)N[C@@H]1CC[C@H](CCNC(=O)c2ccc(F)cc2)O[C@@H]1CO	none (no result: Yeast UUG start)
O=C1CCC[C@@H]2C[C@@]3(C[C@@H]4CCN1[C@H]24)Nc1cc(Cl)ccc1NC3=NC1CCCCC1	none
Cc1cc2c(cc1C)N[C@]1(C[C@H]3CCCC(=O)N4CC[C@@H](C1)[C@@H]34)C(=NC(C)(C)CC(C)(C)C)N2	AF4-AF9 inh 50 | AlphaScreen intf inactive
CCCNC(=O)C[C@@H]1C[C@H]2c3cc(NC(=O)Cc4ccncc4)ccc3O[C@H]2[C@H](CO)O1	none (no result: AF4-AF9 inh, SIRT5 block, RAD52 inh)
COc1ccc(N2CCN(C(=O)C3CCCN(S(=O)(=O)c4c(C)noc4C)C3)CC2)cc1 (stereo unspecified)	AF4-AF9 inh 28 | AlphaScreen intf inactive
C[C@@H]1CCCCO[C@H](CN(C)S(=O)(=O)c2cn(C)cn2)[C@@H](C)CN([C@@H](C)CO)C(=O)c2cc(NC(=O)Cc3ccccc3)ccc2O1	none (no result: AF4-AF9 inh, SIRT5 block, RAD52 inh)
Cc1ccc2nc(-c3ccccn3)c(NC3CCCC3)n2c1	AF4-AF9 inh 32 | AlphaScreen intf inactive
CCN1CCN(Cc2ccc(NC(=O)c3ccc(C)c(NC(=O)c4nccn4C)c3)cc2C(F)(F)F)CC1	none (no result: SIRT5 block)
CCN1CCN(Cc2ccc(NC(=O)c3cc(NC(=O)c4nccnc4N)cc(OC)c3)cc2C(F)(F)F)CC1	AF4-AF9 inh inconclusive (no result: E-sel inducer, SIRT5 block) | AlphaScreen intf inactive
Oc1cc(-c2ccncc2)cc2cccnc12	AF4-AF9 inh 29 (no result: SIRT5 block) | AlphaScreen intf 9.1µM
C/C(=N\N1CCN(C2c3ccccc3-c3ccccc32)CC1)c1cccnc1	none (no result: AF4-AF9 inh, E-sel inducer, SIRT5 block, RAD52 inh)
CN=c1scc(-c2ccccc2F)n1/N=C(\C)c1cccnc1	AF4-AF9 inh 37 (no result: RAD54 inh, E-sel inducer, Yeast UUG start) | AlphaScreen intf inactive
COc1ccc2c3c(n(C)c2c1)[C@@H](CO)N(C(=O)CN1CCOCC1)CC31CN(Cc2ccncc2)C1	none (no result: RAD54 inh, Yeast UUG start)
C#CCOCCOCCOCCNc1nc(N2CCN(C(=O)[C@H]([C@@H](C)CC)n3cc(CCCN=C(N)N)nn3)CC2)nc(N2CCN(C(=O)[C@H](CCCCN)n3cc(CCCC)nn3)CC2)n1	AF4-AF9 inh 29 (no result: SIRT5 block) | AlphaScreen intf inactive
C#CCOCCOCCOCCNc1nc(N2CCN(C(=O)[C@H]([C@@H](C)O)n3cc(CCCCN)nn3)CC2)nc(N2CCN(C(=O)[C@H](CCCCN)n3cc(CCCC)nn3)CC2)n1	none
CCCNC(=O)N1[C@H](CO)[C@H](c2ccccc2)[C@H]1CNC(=O)C1CCC1	none (no result: RAD54 inh, Yeast UUG start)
O=C(c1cnccn1)N1CC(=O)N2[C@H](CO)[C@H](c3ccc(C#CC4CCCC4)cc3)[C@@H]2C1	none (no result: RAD54 inh, Yeast UUG start)
CC(C)n1ncc2c(C(=O)Nc3ccc(S(N)(=O)=O)cc3)cc(C3CC3)nc21	AF4-AF9 inh inconclusive (no result: E-sel inducer) | AlphaScreen intf inactive
COc1ccc(-n2cc(CNCc3cccnc3)c(-c3cccc(F)c3)n2)cc1	none
COc1ccc(-n2cc(CNCCc3cnc[nH]3)c(-c3cccc(F)c3)n2)cc1	AF4-AF9 inh 30 (no result: RAD54 inh, E-sel inducer, Yeast UUG start) | AlphaScreen intf inactive
C[C@@H]1CN([C@@H](C)CO)C(=O)c2cc(NC(=O)C3CC3)ccc2O[C@H]1CN(C)Cc1ccc(-c2ccccc2)cc1	none
Oc1ccc(/C=C/c2ccc3ccccc3n2)cc1	none
C(=C\c1ccc2ccccc2n1)/c1ccccc1	AF4-AF9 inh inconclusive | AlphaScreen intf inactive
Cc1ccc(S(=O)(=O)Nc2ccc3c(c2)CC(=O)N([C@H](C)CO)C[C@@H](C)[C@@H](CN(C)Cc2ccc(C(=O)Nc4ccccc4N)cc2)O3)cc1	none
CC(C)N1CCN(c2ccc(OCC3COC(Cn4cncn4)(c4ccc(Cl)cc4Cl)O3)cc2)CC1 (stereo unspecified)	none (no result: RAD54 inh, SIRT5 block, Yeast UUG start) | AlphaScreen intf inactive
C[C@H]1CN([C@@H](C)CO)C(=O)c2cc(/C=C/c3ccccc3)cnc2O[C@H]1CN(C)C(=O)C1CC1	none (no result: AF4-AF9 inh, RAD54 inh, SIRT5 block, Yeast UUG start, RAD52 inh)
COC(=O)C1=CC(C(=O)c2cccs2)=NN(c2ccc(OC)cc2)C1C(=O)OC (stereo unspecified)	AF4-AF9 inh 32 (no result: RAD54 inh, Yeast UUG start) | AlphaScreen intf inactive
O=C(C[C@@H]1CC[C@H]2[C@@H](COC[C@H](O)CN2Cc2ccccc2F)O1)N[C@H]1CCN(Cc2ccccc2)C1	none
Cn1cc(CN2CCC(C(=O)NC(c3ccc(F)cc3)c3ccc4ccccc4n3)CC2)c2ccccc21 (stereo unspecified)	AF4-AF9 inh 25 | AlphaScreen intf inactive
CCCNC(=O)N1C[C@H](C)[C@H](OC)CN(C)C(=O)c2ccc(NC(=O)CCC)cc2OC[C@@H]1C	none
COc1ccc(N=C2S/C(=C\c3ccc(Cl)c([N+](=O)[O-])c3)C(=O)N2CCN(C)C)cc1	AF4-AF9 inh 26, RAD52 inh 53 | AlphaScreen intf 6.7µM | DNA binder FP inactive
CCCN1C(=O)/C(=C/c2ccc(C)s2)SC1=Nc1ccc(OC)cc1	none (no result: AF4-AF9 inh, E-sel inducer, SIRT5 block, RAD52 inh)
CCS(=O)(=O)NCC[C@@H]1CC[C@@H](NC(=O)C2CCCCC2)[C@H](CO)O1	none (no result: AF4-AF9 inh, RAD54 inh, SIRT5 block, Yeast UUG start, RAD52 inh)
Cc1ccccc1-c1ccc([C@H]2[C@H]3CN(C(=O)Nc4cccc(F)c4)CC(=O)N3[C@H]2CO)cc1	none (no result: RAD54 inh, Yeast UUG start)
CN(C)CCCNC(=O)c1ccc(-c2cc(O)c3ncccc3c2)cc1	AF4-AF9 inh 87, RAD52 inh 101 | AlphaScreen intf 1.8µM | DNA binder FP inactive
Cc1ccc(S(=O)(=O)Nc2ccc3c(c2)CC(=O)N([C@H](C)CO)C[C@@H](C)[C@H](CN(C)C(=O)Nc2cccc4ccccc24)O3)cc1	none

Assay outcomes deposited in PubChem BioAssay by Broad Institute.
